One molecule from US20250084101A1, “COMPOUND FOR INHIBITING AND DEGRADING IRAK4, AND PHARMACEUTICAL COMPOSITION AND PHARMACEUTICAL APPLICATION THEREOF” (XIZANG HAISCO PHARMACEUTICAL CO., LTD., priority 2022, published 2025) can be followed below.

Amino acid sequences for entries named in this document (tags omitted).
UniProt Q9NWZ3, whole entry: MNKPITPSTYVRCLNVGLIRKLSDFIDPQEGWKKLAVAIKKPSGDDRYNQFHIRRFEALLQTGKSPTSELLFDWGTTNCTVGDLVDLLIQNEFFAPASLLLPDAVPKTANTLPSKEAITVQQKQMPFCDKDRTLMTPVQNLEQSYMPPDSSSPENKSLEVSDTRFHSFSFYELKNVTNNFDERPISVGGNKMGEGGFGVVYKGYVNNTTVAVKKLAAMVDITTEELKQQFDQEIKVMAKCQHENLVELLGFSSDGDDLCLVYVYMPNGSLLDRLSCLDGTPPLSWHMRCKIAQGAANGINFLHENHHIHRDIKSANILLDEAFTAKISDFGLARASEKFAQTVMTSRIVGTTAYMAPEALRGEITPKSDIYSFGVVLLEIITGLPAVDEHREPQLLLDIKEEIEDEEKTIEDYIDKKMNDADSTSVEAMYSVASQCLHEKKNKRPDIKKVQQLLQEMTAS
UniProt Q12809, whole entry: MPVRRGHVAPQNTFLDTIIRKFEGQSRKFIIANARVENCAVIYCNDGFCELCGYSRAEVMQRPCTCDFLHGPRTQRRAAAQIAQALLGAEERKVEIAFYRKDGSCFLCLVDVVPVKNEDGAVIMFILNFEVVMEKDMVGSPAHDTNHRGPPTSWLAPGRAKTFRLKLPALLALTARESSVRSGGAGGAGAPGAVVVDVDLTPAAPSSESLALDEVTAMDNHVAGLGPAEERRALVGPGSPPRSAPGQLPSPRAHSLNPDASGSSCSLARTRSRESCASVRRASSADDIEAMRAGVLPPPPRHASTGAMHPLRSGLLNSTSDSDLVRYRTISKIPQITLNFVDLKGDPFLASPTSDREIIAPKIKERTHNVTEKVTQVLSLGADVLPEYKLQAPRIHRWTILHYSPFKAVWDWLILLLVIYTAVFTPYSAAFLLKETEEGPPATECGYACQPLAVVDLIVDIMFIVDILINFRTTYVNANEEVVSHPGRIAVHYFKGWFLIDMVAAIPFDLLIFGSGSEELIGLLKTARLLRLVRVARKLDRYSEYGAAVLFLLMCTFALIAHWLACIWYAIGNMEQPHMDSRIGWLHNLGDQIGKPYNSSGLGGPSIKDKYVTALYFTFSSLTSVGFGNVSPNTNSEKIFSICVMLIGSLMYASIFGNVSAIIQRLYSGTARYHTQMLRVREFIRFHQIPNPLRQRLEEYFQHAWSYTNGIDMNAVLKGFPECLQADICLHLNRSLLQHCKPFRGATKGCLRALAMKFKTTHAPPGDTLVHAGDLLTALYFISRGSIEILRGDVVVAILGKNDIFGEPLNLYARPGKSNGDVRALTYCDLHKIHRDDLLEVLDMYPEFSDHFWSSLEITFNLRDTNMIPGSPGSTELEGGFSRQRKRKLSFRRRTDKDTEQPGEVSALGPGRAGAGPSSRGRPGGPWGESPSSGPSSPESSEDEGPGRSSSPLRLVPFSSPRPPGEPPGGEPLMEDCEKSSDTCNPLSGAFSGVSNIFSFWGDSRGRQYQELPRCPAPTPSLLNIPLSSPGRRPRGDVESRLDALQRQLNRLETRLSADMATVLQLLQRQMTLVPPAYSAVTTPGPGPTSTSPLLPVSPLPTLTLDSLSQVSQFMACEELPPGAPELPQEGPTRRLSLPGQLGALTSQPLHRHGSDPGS

The structures appear in SMILES notation. pIC50: −log10 of the molar value. Some results are limits rather than exact numbers.

In series [1] the target is IRAK4 protein (Homo sapiens, UniProt Q9NWZ3). Kind of series: IRAK4 degradation activity in hPBMC cells (24 hours). Particulars: read-out: DC50 for IRAK4 protein degradation. How it is done:
hPBMC cells are human peripheral blood mononuclear cells. Peripheral venous blood was taken from healthy volunteers, and hPBMCs were isolated using Ficoll density gradient centrifugation (Ficoll-Paque™ PLUS 1.077, GE, Cat. 17-1140-02). Culture conditions: RPMI-1640+10% FBS+1% penicillin-streptomycin solution. The cells were cultured in an incubator at 37° C. and 5% CO2. The cells were plated in a 24-well plate at 1×10^6 cells/well. After plating, compounds at different concentrations were added, and the cells were cultured in an incubator at 37° C. and 5% CO2 for 24 hours. After the culture was completed, the cells were collected, and RIPA lysis buffer (beyotime, Cat. P0013B) was added. The cells were lysed on ice for 20 minutes, and then centrifuged at 12000 rpm at 4° C. for 10 minutes. The protein sample of the supernatant was collected, the protein was quantified using a BCA kit (Beyotime, Cat. P0009), and then the protein was diluted to 1 mg/mL. The expression of IRAK4 (CST, Cat. 4363S) and the internal reference cofilin (CST, Cat. 5175S) were detected using a fully automated western blot quantitative analyzer (Proteinsimple). The expression level of IRAK4 relative to the internal reference was calculated using compass software. […] An IRAK4 degradation-drug concentration curve was fit using Graphpad Prism 8 software, and the DC50 was calculated.

Series [2] has as its target hERG potassium ion channel (Homo sapiens, UniProt Q12809). Kind of series: Effect on hERG potassium ion channel (manual patch-clamp, CHO cells). Particulars: read-out: IC50 for inhibitory effect on hERG potassium channel current; CHO cells stably expressing hERG, whole cell patch-clamp. From the text:
Experimental platform: electrophysiological manual patch-clamp system
Cell line: Chinese hamster ovary (CHO) cell line stably expressing hERG potassium ion channel
Experimental method: In CHO (Chinese Hamster Ovary) cells stably expressing hERG potassium channel, whole cell patch-clamp technique was used to record hERG potassium channel current at room temperature. The glass microelectrode was made of a glass electrode blank (BF150-86-10, Sutter) by a puller. The tip resistance after filling the liquid in the electrode was about 2-5 MQ. The glass microelectrode can be connected to the patch-clamp amplifier by inserting the glass microelectrode into an amplifier probe. The clamping voltage and data recording were controlled and recorded by the pClamp 10 software through a computer. The sampling frequency was 10 kHz, and the filtering frequency was 2 kHz. […]
Data processing: Data analysis processing was carried out by using pClamp 10, GraphPad Prism 5 and Excel software. The inhibition degree of hERG potassium current (peak value of hERG tail current induced at −50 mV) at different compound concentrations was calculated by the following formula: […]
Compound IC50 was calculated using GraphPad Prism 5 software by fitting according to the following equation: […]

Regarding `Cn1nc(C2CCC(=O)NC2=O)c2cccc(C#CCO[C@@H]3CCN(C[C@H]4CC[C@H](n5cc(NC(=O)c6cnn7ccc(N8CCO[C@H](CO)C8)nc67)c(C(F)F)n5)CC4)C[C@@H]3F)c21` (single isomer, unassigned), in series [1], the DC50 (commonly the concentration at which degradation of the target reaches its halfway point) was less than 0.02 µM. The negative-log IC50 (pIC50) (commonly −log10 of the IC50, conventionally taken in molar units) in series [2] is less than 4.40.
